Test results taken from US12391697B2, “Condensed bi-heterocycles as inhibiting agents for Bruton's tyrosine kinase” (BIOGEN MA INC., priority 2019, dated 2025).

Chains of the proteins cited; added tags and fusions are not shown.
UniProt Q06187, whole entry: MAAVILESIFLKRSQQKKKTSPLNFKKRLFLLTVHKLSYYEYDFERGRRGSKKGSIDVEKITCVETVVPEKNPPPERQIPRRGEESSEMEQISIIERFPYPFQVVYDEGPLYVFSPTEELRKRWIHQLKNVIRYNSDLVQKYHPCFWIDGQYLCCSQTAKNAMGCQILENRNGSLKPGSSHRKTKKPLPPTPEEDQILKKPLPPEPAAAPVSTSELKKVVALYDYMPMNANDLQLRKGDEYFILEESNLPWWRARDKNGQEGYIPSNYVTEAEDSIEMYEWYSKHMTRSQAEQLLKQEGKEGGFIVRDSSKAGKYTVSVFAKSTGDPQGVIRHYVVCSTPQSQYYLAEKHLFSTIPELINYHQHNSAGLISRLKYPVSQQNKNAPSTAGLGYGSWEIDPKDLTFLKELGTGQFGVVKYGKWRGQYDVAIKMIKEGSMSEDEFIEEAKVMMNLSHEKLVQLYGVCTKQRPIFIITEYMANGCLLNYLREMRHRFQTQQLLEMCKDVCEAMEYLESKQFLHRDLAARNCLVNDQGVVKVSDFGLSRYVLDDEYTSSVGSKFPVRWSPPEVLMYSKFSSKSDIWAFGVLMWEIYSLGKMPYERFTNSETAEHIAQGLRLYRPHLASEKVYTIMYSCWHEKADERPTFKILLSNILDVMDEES

Biological target: BTK (Homo sapiens (Human), UniProt Q06187)
Test: In Vitro BTK Kinase Assay: Btk-PolyGAT-LS Assay
Type: biochemical
Settings: active BTK enzyme 0.25 nM, ATP 10 μM, polyGAT 100 nM, 30 minutes

IC50 | IC50 (tested form: TFA) | Compound
1 to 10 nM |  | Cc1c(CNC(=O)c2noc(C(C)(C)C)n2)ccc(-c2ccnc3cc(-c4cnn(C)c4)nn23)c1F
 | < 1 nM | Cc1cc(-c2ncnn3cc(-c4cn(C)cn4)cc23)ccc1CNC(=O)c1noc(C(C)(C)C)n1
 | 1 to 10 nM | COC1CN(c2cc3c(-c4ccc(CNC(=O)c5nc(C(C)(C)C)no5)c(C)c4)ncnn3c2)CC1OC (stereo not drawn)
